Laboratory results published in PMC12883167 (Bioorganic & medicinal chemistry letters, 2019).
Peptide text beside a SMILES is read from it. * marks the point of attachment. Cbz = O=C(OCc1ccccc1)*; CH2F = FC*

System: RelB cleavage (MALT1 protease activity) in OCI-Ly3 cells
Assay: Inhibition of RelB cleavage in OCI-Ly3 cells by Western blot
Type: cell-based
Settings: at 1.25 μM

For `CC(C)C[C@H](NC(=O)OCc1ccccc1)C(=O)N[C@H](C(=O)N1CCC[C@H]1C(=O)N[C@@H](CCCNC(=N)N)C(=O)CF)C(C)C` [Compound 1, Z-LVPR-fmk] (Cbz-LVPR-CH2F), the “inhibition of RelB cleavage” value was “complete inhibition”.
